This is an account of results in US12486253B2, “Therapeutics for the degradation of mutant BRAF” (C4 THERAPEUTICS, INC., priority 2021, dated 2025).

Sequences of proteins named here, by UniProt entry; tags and fusion partners are left off.
UniProt P15056, whole entry V600E: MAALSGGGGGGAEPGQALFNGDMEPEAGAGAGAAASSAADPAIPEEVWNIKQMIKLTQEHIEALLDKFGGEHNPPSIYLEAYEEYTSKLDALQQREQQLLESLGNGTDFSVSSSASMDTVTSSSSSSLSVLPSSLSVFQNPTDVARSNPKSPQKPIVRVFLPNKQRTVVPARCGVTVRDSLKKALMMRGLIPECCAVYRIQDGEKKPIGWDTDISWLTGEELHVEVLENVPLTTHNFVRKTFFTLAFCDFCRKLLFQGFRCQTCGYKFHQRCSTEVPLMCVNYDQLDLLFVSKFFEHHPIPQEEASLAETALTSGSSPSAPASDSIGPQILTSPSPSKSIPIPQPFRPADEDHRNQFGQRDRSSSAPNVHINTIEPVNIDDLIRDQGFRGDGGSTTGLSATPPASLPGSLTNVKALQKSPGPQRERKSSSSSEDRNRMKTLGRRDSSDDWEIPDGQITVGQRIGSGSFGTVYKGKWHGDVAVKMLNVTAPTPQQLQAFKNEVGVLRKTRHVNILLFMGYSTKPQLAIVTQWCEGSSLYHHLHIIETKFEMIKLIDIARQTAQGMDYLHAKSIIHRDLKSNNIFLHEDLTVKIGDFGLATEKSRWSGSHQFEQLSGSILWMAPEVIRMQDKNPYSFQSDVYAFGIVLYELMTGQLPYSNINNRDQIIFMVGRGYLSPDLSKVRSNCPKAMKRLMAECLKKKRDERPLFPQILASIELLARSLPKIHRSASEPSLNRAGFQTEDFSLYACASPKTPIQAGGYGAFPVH

Read-outs that look alike come from different tables or passages of the source.

This experiment has as its target BRAF V600E (Homo sapiens, UniProt P15056, V600E). Briefly: HiBiT cellular BRAF^V600E degradation assay. It is filed as cell-based. To be noted: for DC50: read-out: HiBit 24 h DC50; for Emax: read-out: HiBit 24 h Emax.
[1] abbreviates: A375.10 cells, 24 h, concentration at which 50% of total cellular BRAF^V600E is degraded.

With `CCN(C)S(=O)(=O)Nc1ccc(F)c(Oc2ccc3ncn(-c4cnc(N5CCN(C(=O)[C@H](CO)N6CCC(c7ccc(N[C@H]8CCC(=O)NC8=O)cc7F)CC6)CC5)nc4)c(=O)c3c2)c1C#N` [Example 98, 6-[2-cyano-3-[[ethyl(methyl)sulfamoyl]amino]-6-fluorophenoxy]-3-[2-[4-[(2S)-2-[4-[4-[[(3S)-2,6-dioxopiperidin-3-yl]amino]-2-fluorophenyl]piperidin-1-yl]-3-hydroxypropanoyl]piperazin-1-yl]pyrimidin-5-yl]-4-oxoquinazoline], the DC50 under setting [1] worked out at 20.1 nM. Regarding `CCN(C)S(=O)(=O)Nc1ccc(F)c(Oc2ccc3ncn(-c4cnc(N5CCN(C(=O)C(CO)N6CCC(c7ccc(NC8CCC(=O)NC8=O)cc7F)CC6)CC5)nc4)c(=O)c3c2)c1C#N` (centres unmarked) [Example 91, 6-[2-cyano-3-[[ethyl(methyl)sulfamoyl]amino]-6-fluorophenoxy]-3-[2-[4-[2-[4-[4-[(2,6-dioxopiperidin-3-yl)amino]-2-fluorophenyl]piperidin-1-yl]-3-hydroxypropanoyl]piperazin-1-yl]pyrimidin-5-yl]-4-oxoquinazoline], the Emax turned out to be 18.4%. The 50% degradation concentration (DC50) under setting [1] amounted to 42.4 nM. Turning to `CCN(C)S(=O)(=O)Nc1ccc(F)c(Oc2ccc3ncn(-c4cnc(N5CCN(C(=O)CN6CC[C@@H](c7ccc(N[C@H]8CCC(=O)NC8=O)cc7F)[C@H](OC)C6)CC5)nc4)c(=O)c3c2)c1C#N` (single isomer, unassigned) [Example 104], the DC50 turned out to be 56.3 nM and the Emax was found to be 22.3%.
